The text below walks through data of US6960559B1, “Neurite growth regulatory factors” (University of Zurich, priority 1988, dated 2005).

Each structure is given as a SMILES string.

The subject of this experiment is C6 glioblastoma cells. In kind it is cell-based, rat. The note with it: 2 h. Here is the method:
Rat C6 glioblastoma cells (Benda et al., 1968, Science 161:370-371) were cultured in Dulbecco's modified Eagle's medium (DMEM) supplemented with 10% fetal calf serum (FCS), usually to maximally 70-80% confluency (Paganetti et al., 1988, J. Cell Biol. 107:2281-2291). All cell culture media were routinely supplemented with penicillin and streptomycin. Cells were harvested by a short trypsin treatment (0.1% in Ca^2+/Mg^2+-free [CMF] PBS/EDTA solution for 90 seconds) followed by addition of DMEM/10% FCS and centrifugation (600×g, 6 min). The cell pellet was rinsed with 5 ml DMEM/10% FCS and centrifuged. For cell spreading assays, cells were resuspended at 10^6/ml in defined serum-free medium (MEMα) supplemented with 0.2 μg/ml insulin, 0.5 μg/ml transferrin and 0.12 μg/ml bovine serum albumin (BSA). Protease blockers or peptides were added directly to the cell suspension from 10×solutions 10 min before plating.
Spinal cord myelin from young adult Lewis rats was purified on a discontinuous sucrose gradient (Colman et al., 1982, J. Cell Biol. 95:598-608; Schwab and Caroni, 1988, J. Neurosci. 8:2381-2393) and stored in 100 mM sucrose, 25 mM TRIS/HCl pH 7.4 at −80° C. up to 6 months. The myelin suspension ([…]) was incubated for 30 min on poly-D-lysine-coated wells (PLYS-wells). […] Experiments were scored as described (Paganetti et al., 1988, J. Cell Biol. 107:2281-2291).

In the case of `C[C@H](N)C(=O)N[C@@H](Cc1ccccc1)C(=O)N[C@@H](Cc1ccc(O)cc1)C(N)=O` [AFY-NH2], the IC50 – broadly, the concentration that inhibits the measured activity by half – amounted to 1 mM.
